Measurements as given in patent US20240270809A1, “ORAL GLP RECEPTOR AGONISTS” (priority 2020, published 2024).

The chains behind the UniProt entries cited, without tags or fusion partners. Residues count along the entry.
UniProt P43220, 24-463: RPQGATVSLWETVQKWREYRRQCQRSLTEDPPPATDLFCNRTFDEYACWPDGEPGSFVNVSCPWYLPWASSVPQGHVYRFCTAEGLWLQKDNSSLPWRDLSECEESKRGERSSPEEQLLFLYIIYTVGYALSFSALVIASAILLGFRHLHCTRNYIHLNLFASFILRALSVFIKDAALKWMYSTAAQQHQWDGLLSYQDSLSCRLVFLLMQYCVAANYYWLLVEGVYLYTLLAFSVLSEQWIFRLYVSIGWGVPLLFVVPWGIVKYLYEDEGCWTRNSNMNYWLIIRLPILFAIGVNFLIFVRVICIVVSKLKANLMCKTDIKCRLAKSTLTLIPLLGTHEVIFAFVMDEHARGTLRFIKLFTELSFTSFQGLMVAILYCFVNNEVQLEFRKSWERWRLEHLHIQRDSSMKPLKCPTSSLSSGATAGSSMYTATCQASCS

How the values were obtained:
[1] = Stability of peptides in Fasted-State Simulated Intestinal Fluid (FaSSIF); type: in vitro ADME; conditions: FaSSIF with 10 mg/ml pancreatin; t=30 mins, 37° C., pH 6.5, 10 mg/ml pancreatin
[2] = Stability of peptides in rat intestinal fluid (ratIF); conditions: Sprague Dawley, undiluted rat small intestinal fluid (ratIF)
[3] = Stability of peptides in Fasted-State Simulated Gastric Fluid (FaSSGF); type: in vitro ADME; conditions: FaSSGF with 0.1 mg/ml pepsin; t=30 mins, 37° C., pH 1.6, 0.1 mg/ml pepsin
human GLP1 receptor = biological target: T1, human GLP1 receptor (Homo sapiens, UniProt P43220); assay: cAMP accumulation assay, functional agonism of human GLP1 receptor; type: cell-based; conditions: for Emax: HEK293, read-out: Human GLP-1R agonist cAMP Emax
T1 construct: expressed in transfected cells; host or cells: HEK cells, BacMam virus transduction
Procedure: (§1) CAMP production upon agonist stimulation of human GLP2 or GLP1 receptor was assessed utilizing HiRange cAMP kit (Cisbio). In brief, HEK cells were infected with either human GLP2 or GLP1 receptor BacMam virus for 24 hours and frozen for later use in the assay. […] Cells were prepared in the assay buffer (HBSS (Lonza) supplemented with 0.5 mM IBMX (Tocris)). After 45 min incubation at 37° C., the reaction was stopped by addition of the HTRF detection reagents in the lysis buffer provided in the kit.

human GLP2 receptor = biological target: T2, human GLP2 receptor (Homo sapiens, UniProt O95838); assay: cAMP accumulation assay, functional agonism of human GLP2 receptor; type: cell-based; conditions: for Emax: HEK293, read-out: Human GLP-2R agonist cAMP Emax
T2 construct: expressed in transfected cells; host or cells: HEK cells, BacMam virus transduction
T2 sequence (O95838 1-553): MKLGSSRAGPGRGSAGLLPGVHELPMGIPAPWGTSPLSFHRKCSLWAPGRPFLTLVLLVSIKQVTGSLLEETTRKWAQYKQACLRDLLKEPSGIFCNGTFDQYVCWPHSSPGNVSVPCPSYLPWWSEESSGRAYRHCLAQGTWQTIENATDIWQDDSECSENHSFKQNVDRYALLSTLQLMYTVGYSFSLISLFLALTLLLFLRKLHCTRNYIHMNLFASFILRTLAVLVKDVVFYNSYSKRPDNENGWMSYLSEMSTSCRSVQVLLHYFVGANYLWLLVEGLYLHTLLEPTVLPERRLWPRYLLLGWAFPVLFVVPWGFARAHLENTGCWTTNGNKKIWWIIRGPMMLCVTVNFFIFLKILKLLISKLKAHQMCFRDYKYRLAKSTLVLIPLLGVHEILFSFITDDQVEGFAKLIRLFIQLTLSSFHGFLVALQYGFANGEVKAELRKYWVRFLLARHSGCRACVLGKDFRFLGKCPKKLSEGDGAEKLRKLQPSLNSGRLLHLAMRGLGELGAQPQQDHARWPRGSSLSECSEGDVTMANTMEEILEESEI
Procedure: as §1

CCCC[C@H](NC(=O)[C@H](CCC(=O)O)NC(=O)[C@@H]1CC(=O)NCCCC[C@H](NC(=O)[C@H](CC(=O)O)NC(=O)C(C)(C)NC(=O)[C@@H](N)Cc2c[nH]cn2)C(=O)N[C@@H](CO)C(=O)N[C@@H](Cc2ccccc2)C(=O)N[C@@H](CO)C(=O)N1)C(=O)N[C@H](Cc1ccccc1)C(=O)N[C@H]1CCC(=O)NCCCC[C@@H](C(=O)N[C@@H](CCCCN)C(=O)N[C@@H](C)C(=O)N[C@@H](C)C(=O)NC(C)(C)C(=O)N[C@@H](CC(=O)O)C(=O)N[C@@H](Cc2ccccc2)C(=O)N[C@H](C(=O)N[C@H]2CCC(=O)NCCCC[C@@H](C(=O)N[C@H]3CCC(=O)NCCCC[C@@H](C(N)=O)NC(=O)[C@H]([C@@H](C)O)NC(=O)[C@H]([C@@H](C)CC)NC(=O)[C@H](CCCCN)NC3=O)NC(=O)[C@H]([C@@H](C)CC)NC(=O)[C@H](CC(C)C)NC(=O)[C@H](Cc3c[nH]c4ccccc34)NC2=O)[C@@H](C)CC)NC(=O)[C@H](CC(=O)O)NC(=O)[C@H](CC(C)C)NC(=O)[C@H]([C@@H](C)CC)NC1=O [Example 39]
remaining at 0.5 h [1]: 100%
remaining at 0.5 h [2]: 12.7%
remaining at 0.5 h [3]: 100%
EC50 (human GLP1 receptor): 398 pM
Emax (human GLP1 receptor): 92.6%
EC50 (human GLP2 receptor): 200 pM
Emax (human GLP2 receptor): 105%

CCCC[C@H](NC(=O)[C@H](CCC(=O)O)NC(=O)[C@@H]1CC(=O)NCCCC[C@H](NC(=O)[C@H](Cc2nn[nH]n2)NC(=O)C(C)(C)C(=O)NCCc2c[nH]cn2)C(=O)N[C@@H](CO)C(=O)N[C@@H](Cc2ccccc2)C(=O)N[C@@H](CO)C(=O)N1)C(=O)N[C@H](Cc1ccccc1)C(=O)N[C@H]1CCC(=O)NCCCC[C@@H](C(=O)N[C@@H](CCCCN)C(=O)N[C@@H](C)C(=O)N[C@@H](C)C(=O)NC(C)(C)C(=O)N[C@@H](CC(=O)O)C(=O)N[C@@H](Cc2ccccc2)C(=O)N[C@H](C(=O)N[C@H]2CCC(=O)NCCCC[C@@H](C(=O)N[C@H]3CCC(=O)NCCCC[C@@H](C(N)=O)NC(=O)[C@H]([C@@H](C)O)NC(=O)[C@H]([C@@H](C)CC)NC(=O)[C@H](CCCCN)NC3=O)NC(=O)[C@H]([C@@H](C)CC)NC(=O)[C@H](CC(C)C)NC(=O)[C@H](Cc3c[nH]c4ccccc34)NC2=O)[C@@H](C)CC)NC(=O)[C@H](CC(=O)O)NC(=O)[C@H](CC(C)C)NC(=O)[C@H]([C@@H](C)CC)NC1=O [Example 41]
EC50 (human GLP1 receptor): 251 pM
Emax (human GLP1 receptor): 95.3%
EC50 (human GLP2 receptor): 794 pM
Emax (human GLP2 receptor): 97.6%
